Laboratory results as given in ChEMBL document CHEMBL2021892, “Rational design, synthesis and anti-proliferative properties of new CB2 selective cannabinoid receptor ligands: an investigation of the 1,8-naphthyridin-2(1H)-one scaffold” (Eur J Med Chem, 2012).

The chains behind the UniProt entries cited, without tags or fusion partners.
UniProt P21554, whole entry: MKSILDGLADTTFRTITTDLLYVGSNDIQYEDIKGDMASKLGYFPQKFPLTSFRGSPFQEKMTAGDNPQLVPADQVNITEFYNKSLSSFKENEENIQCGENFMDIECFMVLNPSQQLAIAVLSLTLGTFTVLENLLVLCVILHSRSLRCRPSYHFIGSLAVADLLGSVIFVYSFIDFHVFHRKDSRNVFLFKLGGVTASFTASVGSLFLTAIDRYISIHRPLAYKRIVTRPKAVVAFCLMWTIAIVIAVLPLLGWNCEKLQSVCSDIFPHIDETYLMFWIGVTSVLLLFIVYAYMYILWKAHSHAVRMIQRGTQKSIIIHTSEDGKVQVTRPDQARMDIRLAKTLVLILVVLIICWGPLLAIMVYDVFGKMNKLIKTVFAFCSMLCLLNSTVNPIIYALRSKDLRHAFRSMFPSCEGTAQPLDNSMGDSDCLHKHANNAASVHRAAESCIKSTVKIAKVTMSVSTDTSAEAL

Biological target: Cannabinoid receptor 1 (Homo sapiens, UniProt P21554)
Assay: Displacement of [3H]CP55940 from recombinant human CB1 receptor expressed in human HEK293 cell membrane after 90 mins
Assay type: cell membranes
Method in brief: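 Membranes of HEK-293 cells transfected with human recombinant CB1R (Bmax 2.5 pmol/mg protein) or CB2R (Bmax 4.7 pmol/mg protein). Test compound at increasing concentrations displaced [3H]CP55,940 over 90 min at 30 °C. Ki obtained from IC50 by Cheng–Prusoff. Means of at least three experiments run in duplicate.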

In the case of Cc1ccc(Cn2nc(C(=O)N[C@@H]3C(C)(C)[C@@H]4CC[C@@]3(C)C4)cc2-c2ccc(Cl)c(C)c2)cc1, the Ki is reported as 121 nM.
